The target of data set [1] is Arabidopsis recombinant CYP707A3 (ABA 8′-hydroxylase) (Arabidopsis thaliana, UniProt Q9FH76). Kind of data set: CYP707A3 inhibition assay (decrease of enzymatic product PA). The settings on record: read-out: CYP707A IC50; Arabidopsis recombinant CYP707A3 expressed in E. coli; 5 μM ABA as substrate. It is filed as biochemical. The procedure: The inhibitory activities of Abz-T compounds against ABA 8′-hydroxylase were examined using recombinant Arabidopsis CYP707A3 co-expressed with Arabidopsis P-450 reductase (ATR1) in Escherichia coli[22]. The activity levels were evaluated based on the decrease in the amount of the enzymatic product, PA. […] The inhibition constant (KI) of (−)-compound 6 was determined to be 35 nM.
Reaction mixtures, containing 25 μg mL^−1 of CYP707A3 microsomes (co-expressed with ATR1 in E. coli), ABA (final concentrations of 1–64 μM for determining the KI value or 5 μM for determining the IC50 value), inhibitors (0 for control, 0.5–1,500 μM in 5 μL dimethylformamide) and 130 μM NADPH in 100 mM potassium phosphate buffer (pH 7.25), were incubated at 30 °C for 10 min. Reactions were initiated by adding NADPH, stopped by the addition of 25 μL of 1 M NaOH and then acidified with 50 μL of 1 M HCl. Reaction products were extracted by loading the mixture onto an Oasis HLB cartridge (1 mL, 30 mg; Waters Corp., Milford, MA, USA) and were washed with 1 mL of 10% MeOH in H2O (v/v) containing 1% acetic acid (AcOH, v/v). The enzyme products were then eluted with 1 mL of MeOH containing 1% AcOH, and the eluate was concentrated in vacuo. Each dried sample was then dissolved in 50 μL of MeOH, and a 20-μL volume was subjected to HPLC (Prominence; Shimadzu Corp., Kyoto, Japan). HPLC conditions were as follows: the octadecylsilyl column was composed of Hydrosphere C18 (150 × 6.0 mm, YMC Co., Ltd., Kyoto, Japan), and the solvent comprised 17% acetonitrile (MeCN) in H2O containing 0.05% AcOH (v/v). The flow rate was 1.0 mL min^−1, and detection was at 254 nm. Enzyme activity was evaluated by determining the amount of PA in control experiments prior to taking each set of measurements. The inhibition constants were determined using the Enzyme Kinetics module of the SigmaPlot 10 software (Systat Software, Inc., San Jose, CA, USA) after determining the inhibition mode by plotting the reaction velocity in the presence and absence of the inhibitor on a double-reciprocal plot. The inhibition ratio was defined as [(A − B)/A] × 100, where A = the amount of PA when the inhibitor was absent from the reaction mixture (control), and B = the amount of PA when the inhibitor was present. All of the tests were conducted at least three times.

Chains of the proteins cited; added tags and fusions are not shown.
UniProt Q9FH76, whole entry: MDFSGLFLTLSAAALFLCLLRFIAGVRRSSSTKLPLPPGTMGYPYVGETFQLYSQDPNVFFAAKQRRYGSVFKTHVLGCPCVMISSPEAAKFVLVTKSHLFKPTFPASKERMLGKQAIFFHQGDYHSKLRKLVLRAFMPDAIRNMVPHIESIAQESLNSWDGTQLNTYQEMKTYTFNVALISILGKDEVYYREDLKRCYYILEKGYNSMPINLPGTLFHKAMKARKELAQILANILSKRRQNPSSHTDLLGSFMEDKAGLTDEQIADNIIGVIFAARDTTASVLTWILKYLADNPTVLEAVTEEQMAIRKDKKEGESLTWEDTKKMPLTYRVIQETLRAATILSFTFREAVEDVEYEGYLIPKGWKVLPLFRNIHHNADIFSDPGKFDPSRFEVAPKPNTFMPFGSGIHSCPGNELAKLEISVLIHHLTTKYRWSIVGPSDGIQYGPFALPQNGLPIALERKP
UniProt Q5Z5R4, whole entry: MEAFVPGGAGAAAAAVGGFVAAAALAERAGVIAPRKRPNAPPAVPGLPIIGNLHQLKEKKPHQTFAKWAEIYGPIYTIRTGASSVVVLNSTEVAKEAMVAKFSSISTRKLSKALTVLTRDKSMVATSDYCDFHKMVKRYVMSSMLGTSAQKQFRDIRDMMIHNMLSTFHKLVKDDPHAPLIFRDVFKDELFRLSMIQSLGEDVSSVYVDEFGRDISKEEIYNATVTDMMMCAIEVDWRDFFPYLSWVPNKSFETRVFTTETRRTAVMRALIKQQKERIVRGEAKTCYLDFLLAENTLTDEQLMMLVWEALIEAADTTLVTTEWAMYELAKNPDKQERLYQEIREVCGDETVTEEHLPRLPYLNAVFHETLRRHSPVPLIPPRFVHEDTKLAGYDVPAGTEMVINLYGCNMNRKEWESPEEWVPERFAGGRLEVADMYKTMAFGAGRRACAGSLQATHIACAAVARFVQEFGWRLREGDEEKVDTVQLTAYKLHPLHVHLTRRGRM

The target of data set [2] is Rice recombinant CYP701A6 (ent-kaurene oxidase) (Oryza sativa subsp. japonica, UniProt Q5Z5R4). The experiment in a line: CYP701A6 inhibition assay (formation of end product KA). It is filed as biochemical. The settings on record: read-out: CYP701A IC50, Rice recombinant CYP701A6 expressed in insect cells, 10 μM ent-kaurene. The method, then:
To evaluate the enzymatic selectivity between CYP707A and CYP701A, we examined the inhibitory activity against recombinant rice containing CYP701A6 expressed in insect cells using a baculovirus vector. This enzyme catalyses all three steps to KA via the corresponding alcohol and aldehyde, and consequently, the kinetic analysis is very complicated. Therefore, we evaluate the IC50 value for the formation of the end product, KA, instead of the KI value.
Reaction mixtures, containing 0.058 μM of […] microsomes, ATR2 (0.115 U), ent-kaurene (final concentration of 10 μM), inhibitors (0 for control, 1.5–1,500 μM in 8 μL dimethylformamide), and 20 mM NADPH in 500 mM potassium phosphate buffer (pH 7.4), were incubated at 30 °C for 10 min. Reactions were initiated by adding NADPH and stopped by the addition of 100 μL of 1 M HCl. Abietic acid, as the internal standard, was then added to the reaction product, which was extracted with EtOAc (400 μL × 3). The organic phase was dried over Na2SO4 and concentrated in vacuo. To derivatize the reaction products, MeOH (50 μL) and trimethylsilyldiazomethane (2 M in 5 μL hexane) were added, and the reaction mixture was incubated at room temperature for 10 min. The organic solvent was removed under N2, and samples were adjusted to 150 μL with hexane before a gas chromatography-mass spectrometry analysis (QP2010-plus; Shimadzu Corp., Kyoto, Japan). The conditions were as follows: the column was DB-5ms (0.25 mm id × 15 m, 0.25 μm film thickness; Agilent J & W, Folsom, CA, USA), the carrier gas was He, the flow rate was 1.65 mL min^−1, the injection port temperature was 280 °C, splitless injection, and the programmed column temperature was a step gradient of 80 °C for 1 min, 80–200 °C at 18 °C min^−1, 200–210 °C at 2 °C min^−1, 210–280 °C at 30 °C min^−1, and then 280 °C for 3 min. The KA content was calculated from the area ratio of molecular and fragment ions of methyl KA (m/z 316, 273, and 257) to those of methyl abietate (m/z 316 and 256). The inhibition ratio was defined as [(A − B)/A] × 100, where A = the amount of methyl KA/methyl abietate when the inhibitor was absent from the reaction mixture (control), and B = the amount of methyl KA/methyl abietate when the inhibitor was present. All of the tests were conducted at least three times.

The next data set deals with rice seedling growth. Kind of data set: Rice seedling elongation assay. It is filed as in vivo, Oryza sativa L. cv. Nipponbare. The settings on record: at less than 100 μM. The procedure: The effects of (−)-Abz-T compounds were also tested on the early growth of rice seedlings to investigate whether the plant growth-retardant effect derived from UNI declined. […] This was the same trend observed for (−)-Abz-E2B[26]. […] Thus, the growth-retardant effects of (−)-Abz-T compounds may arise from an increase in the endogenous ABA level due to the CYP707A inhibition, although we cannot exclude the possibility that Abz-T compounds may inhibit off-target enzymes other than CYP707A and CYP701A.
Figure 4 Effects of (−)-Abz-T compounds on rice seedling growth compared with the effects of UNI and (−)-Abz-E2B. Seedlings grown on test media containing indicated concentrations of azole inhibitors for 7 d. Scale bars represent 10 mm. Compound 6 is also referred to as Abz-E3M.
For the rice seedling elongation assay, seven seeds (Oryza sativa L. cv. Nipponbare) were sterilised with reagent-grade EtOH for 5 min and washed with running tap water. They were then soaked in distilled water and incubated under continuous illumination at 25 °C for 3 d to germinate. The germinated seeds were then soaked in 2 mL of a test medium in a glass tube and grown under continuous illumination at 25 °C. When the seedlings were 7 d old, the length of the second leaf sheath was measured. All of the assays were conducted at least three times.

The subject of data set [3] is Arabidopsis seed germination. The experiment in a line: Arabidopsis seed germination assay. The settings on record: in the presence of 0.1 μM ABA; Fig. 3. Format: in vivo, Arabidopsis (Columbia accession). The method, then:
In addition, (−)-compound 6 inhibited Arabidopsis seed germination under high temperature conditions (Fig. S3), which can be mimicked in the laboratory to cause thermoinhibition and induce the accumulation of endogenous ABA in plants.
Figure 3 Effects of (−)-Abz-T compounds on Arabidopsis seed germination compared with that of (−)-Abz-E2B. Seed germination rates in the presence of 0.1 μM ABA and the indicated concentrations of azole inhibitors at a time when the germination rate of plants treated only with ABA was 80% (n = 3; error bars represent s.d.). Compound 6 is also referred to as Abz-E3M.
For the Arabidopsis seed germination assay, 25 to 40 seeds (Columbia accession) were sterilised successively by soaking in 70% EtOH for 30 min and reagent-grade EtOH for 1 min. They were then soaked in distilled water and incubated in the darkness at 5 °C for 3 d. The stratified seeds were then soaked in 100 μL of a test medium liquid agar in 96-well plates and allowed to germinate under continuous illumination at 22 or 30 °C. In these assays, we used the classic definition of radical emergence for seed germination. All of the assays were conducted at least three times.

On to `COCCOCCOCCOCC#Cc1ccc(/C=C(\C(O)C(C)(C)C)n2cncn2)cc1` (single isomer, unassigned) [(+)-5], for which the results for the IC50 in data set [1] and in data set [2] were 7.7 µM and 17 µM, respectively.

Turning to `CCCCOCCOCCOCC#Cc1ccc(/C=C(\C(O)C(C)(C)C)n2cncn2)cc1` (single isomer, unassigned) [(+)-3], the IC50 was 1 µM in data set [1] and 1.5 µM in data set [2].

With `COCCOCCOCCOCC#Cc1ccc(/C=C(\C(O)C(C)(C)C)n2cncn2)cc1` (single isomer, unassigned) [(−)-5], the IC50 in data set [1] was found to be 1.5 µM; in data set [2] it was 8.6 µM.

As to `CCCCOCCOCCOCC#Cc1cccc(/C=C(\C(O)C(C)(C)C)n2cncn2)c1` (single isomer, unassigned) [(+)-4], the IC50 in data set [1] was found to be 0.24 µM; in data set [2] it was 0.12 µM.

For the molecule `CCCCOCCOCCOCC#Cc1cccc(/C=C(\C(O)C(C)(C)C)n2cncn2)c1` (single isomer, unassigned) [(−)-4], the “Effect on rice seedling growth” value in the data set with rice seedling growth was “did not inhibit seedling growth”. The “Effect on ABA's inhibition of Arabidopsis seed germination” value in data set [3] is “enhanced the effects of ABA”. In addition, the values for the half-inhibitory concentration (IC50) in data set [1] and in data set [2] were 0.012 µM and 0.062 µM, respectively.

As for `CCCCOCCOCCOCC#Cc1ccc(/C=C(\C(O)C(C)(C)C)n2cncn2)cc1` (single isomer, unassigned) [(−)-3], the results for the IC50 in data set [1] and in data set [2] were 0.2 µM and 0.77 µM, respectively.

The record behind these values is article PMC5107945, “Abscinazole-E3M, a practical inhibitor of abscisic acid 8′-hydroxylase for improving drought tolerance” (Scientific Reports, 2016).
